The target in this experiment is Recombinant human cathepsin S (CatS) (Homo sapiens, UniProt P25774). The experiment is described as follows: biochemical.

Amino acid sequences for entries named in this document (tags omitted). Residues count along the entry.
UniProt P25774, 115-331: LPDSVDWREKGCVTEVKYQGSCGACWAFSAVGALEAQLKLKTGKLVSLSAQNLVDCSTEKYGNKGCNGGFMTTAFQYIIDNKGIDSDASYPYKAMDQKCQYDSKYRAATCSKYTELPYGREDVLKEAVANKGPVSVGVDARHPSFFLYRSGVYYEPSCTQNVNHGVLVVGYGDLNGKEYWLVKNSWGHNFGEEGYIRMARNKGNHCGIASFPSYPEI

In general, IC50 refers to the concentration that gives 50% inhibition. For the compound `O=C(CSc1cc(-c2nn(CC(O)CN3Cc4ccccc4C3)c3c2CNCC3)ccc1C(F)(F)F)N1CCCC1` (stereo not drawn) [Example 305, 1-(1,3-Dihydro-2H-isoindol-2-yl)-3-(3-{3-[(2-oxo-2-pyrrolidin-1-ylethyl)sulfanyl]-4-(trifluoromethyl)phenyl}-4,5,6,7-tetrahydro-1H-pyrazolo[4,3-c]pyridin-1-yl)propan-2-ol], the IC50 came to 1560 nM.

For the compound `CC1C(=O)NCCN1CCSc1cc(-c2nn(CC(O)CN3CCC(N4CCCC4=O)CC3)c3c2CN(S(C)(=O)=O)CC3)ccc1C(F)(F)F` (stereo not drawn) [Example 167, 4-[2-({5-[1-{2-Hydroxy-3-[4-(2-oxopyrrolidin-1-yl)piperidin-1-yl]propyl}-5-(methylsulfonyl)-4,5,6,7-tetrahydro-1H-pyrazolo[4,3-c]pyridin-3-yl]-2-(trifluoromethyl)phenyl}sulfanyl)ethyl]-3-methylpiperazin-2-one], the IC50 was determined as 80 nM.

As to `CCN1CCc2c(c(-c3ccc(C(F)(F)F)c(SCC(=O)N4CCCC4)c3)nn2CC(O)CN2CCC(c3ccc(C#N)cc3)CC2)C1` (stereo not drawn) [Example 585, 4-{1-[3-(5-Ethyl-3-{3-[(2-oxo-2-pyrrolidin-1-ylethyl)sulfanyl]-4-(trifluoromethyl)phenyl}-4,5,6,7-tetrahydro-1H-pyrazolo[4,3-c]pyridin-1-yl)-2-hydroxypropyl]piperidin-4-yl}benzonitrile], the IC50 is 230 nM.

On to `COC(=O)C(=O)N1CCc2c(c(-c3ccc(C(F)(F)F)c(SCCN4CCC(F)CC4)c3)nn2CC(O)CN2CCCCC2)C1` (stereo not drawn) [Example 435, Methyl {3-[3-{[2-(4-fluoropiperidin-1-yl)ethyl]sulfanyl}-4-(trifluoromethyl)phenyl]-1-(2-hydroxy-3-piperidin-1-ylpropyl)-1,4,6,7-tetrahydro-5H-pyrazolo[4,3-c]pyridin-5-yl}(oxo)acetate], for which the IC50 was 65 nM.

For the compound `CS(=O)(=O)NCCSc1cc(-c2nn(CC(O)CN3CCN(c4ccccc4C#N)CC3)c3c2CN(S(C)(=O)=O)CC3)ccc1C(F)(F)F` (stereo not drawn) [Example 800, N-[2-({5-[1-{3-[4-(2-Cyanophenyl)piperazin-1-yl]-2-hydroxypropyl}-5-(methylsulfonyl)-4,5,6,7-tetrahydro-1H-pyrazolo[4,3-c]pyridin-3-yl]-2-(trifluoromethyl)phenyl}sulfanyl)ethyl]methanesulfonamide], the IC50 came out at 20 nM.

For `CC(=O)N1CCN(CCSc2cc(-c3nn(CC(O)CN4CCN(c5ccccc5C#N)CC4)c4c3CN(S(C)(=O)=O)CC4)ccc2C(F)(F)F)CC1` (stereo not drawn) [Example 865, 2-[4-(3-{3-[3-{[2-(4-Acetylpiperazin-1-yl)ethyl]sulfanyl}-4-(trifluoromethyl)phenyl]-5-(methylsulfonyl)-4,5,6,7-tetrahydro-1H-pyrazolo[4,3-c]pyridin-1-yl}-2-hydroxypropyl)piperazin-1-yl]benzonitrile], the IC50 was 120 nM.

`O=C(CSc1cc(-c2nn(CC(O)CN3CCC(c4ccccn4)CC3)c3c2CNCC3)ccc1C(F)(F)F)N1CCOCC1` (stereo not drawn) [Example 268, 1-(3-{3-[(2-Morpholin-4-yl-2-oxoethyl)sulfanyl]-4-(trifluoromethyl)phenyl}-4,5,6,7-tetrahydro-1H-pyrazolo[4,3-c]pyridin-1-yl)-3-(4-pyridin-2-ylpiperidin-1-yl)propan-2-ol]: the IC50 is 110 nM.

For the compound `CC(=O)N1CCN(CCSc2cc(-c3nn(CC(O)CN4CCN(c5ccccc5O)CC4)c4c3CN(S(C)(=O)=O)CC4)ccc2C(F)(F)F)CC1` (stereo not drawn) [Example 859, 2-[4-(3-{3-[3-{[2-(4-Acetylpiperazin-1-yl)ethyl]sulfanyl}-4-(trifluoromethyl)phenyl]-5-(methylsulfonyl)-4,5,6,7-tetrahydro-1H-pyrazolo[4,3-c]pyridin-1-yl}-2-hydroxypropyl)piperazin-1-yl]phenol], the IC50 was 110 nM.

Take `CS(=O)(=O)N1CCc2c(c(-c3ccc(C(F)(F)F)c(SCC(=O)N4CCOCC4)c3)nn2CCCN2CCC(C(F)(F)F)CC2)C1` [Example 111, 2-(5-{5-Methanesulfonyl-1-[3-(4-trifluoromethyl-piperidin-1-yl)-propyl]-4,5,6,7-tetrahydro-1H-pyrazolo[4,3-c]pyridin-3-yl}-2-trifluoromethyl-phenylsulfanyl)-1-morpholin-4-yl-ethanone]: the half-inhibitory concentration (IC50) came to 240 nM.

For the compound `CS(=O)(=O)N1CCc2c(c(-c3ccc(C(F)(F)F)c(SCCN4CCC(F)(F)C4)c3)nn2CC(O)CN2CCN(c3ccccc3C#N)CC2)C1` (stereo not drawn) [Example 840, 2-[4-(3-{3-[3-{[2-(3,3-Difluoropyrrolidin-1-yl)ethyl]sulfanyl}-4-(trifluoromethyl)phenyl]-5-(methylsulfonyl)-4,5,6,7-tetrahydro-1H-pyrazolo[4,3-c]pyridin-1-yl}-2-hydroxypropyl)piperazin-1-yl]benzonitrile], the IC50 worked out at 20 nM.

`CC(C)(O)C1CCN(C[C@H](O)Cn2nc(-c3ccc(C(F)(F)F)c(SCCN4CCC(F)(F)CC4)c3)c3c2CCN(S(C)(=O)=O)C3)CC1` [Example 723, (2S)-1-{3-[3-{[2-(4,4-Difluoropiperidin-1-yl)ethyl]sulfanyl}-4-(trifluoromethyl)phenyl]-5-(methylsulfonyl)-4,5,6,7-tetrahydro-1H-pyrazolo[4,3-c]pyridin-1-yl}-3-[4-(1-hydroxy-1-methylethyl)piperidin-1-yl]propan-2-ol]: the IC50 is 45 nM.

With `CS(=O)(=O)N1CCc2c(c(-c3ccc(C(F)(F)F)c(SCC(=O)Nc4cccc5c4Cc4ccccc4-5)c3)nn2CC(O)CN2CCC(N3CCCC3=O)CC2)C1` (stereo not drawn) [Example 71, N-(9H-Fluoren-1-yl)-2-[5-(1-{2-hydroxy-3-[4-(2-oxo-pyrrolidin-1-yl)-piperidin-1-yl]-propyl}-5-methanesulfonyl-4,5,6,7-tetrahydro-1H-pyrazolo[4,3-c]pyridin-3-yl)-2-trifluoromethyl-phenylsulfanyl]-acetamide], the 50% inhibitory concentration (IC50) turned out to be 2250 nM.

For `CS(=O)(=O)N1CCc2c(c(-c3ccc(C(F)(F)F)c(SCC(=O)N4CC[C@@H](O)C4)c3)nn2CC(O)CN2CCN(c3ccccc3O)CC2)C1` (stereo partly drawn) [Example 784, (3R)-1-[({5-[1-{2-Hydroxy-3-[4-(2-hydroxyphenyl)piperazin-1-yl]propyl}-5-(methylsulfonyl)-4,5,6,7-tetrahydro-1H-pyrazolo[4,3-c]pyridin-3-yl]-2-(trifluoromethyl)phenyl}sulfanyl)acetyl]pyrrolidin-3-ol], the half-inhibitory concentration (IC50) amounted to 40 nM.

Take `CN(C)c1ccc2c(n1)n(C1CCN(CC(O)Cn3nc(-c4ccc(C(F)(F)F)c(SCC(=O)N5CC[C@@H](O)C5)c4)c4c3CCN(S(C)(=O)=O)C4)CC1)c(=O)n2C` (stereo partly drawn) [Example 893, 5-(Dimethylamino)-3-[1-(2-hydroxy-3-{3-[3-({2-[(3R)-3-hydroxypyrrolidin-1-yl]-2-oxoethyl}sulfanyl)-4-(trifluoromethyl)phenyl]-5-(methylsulfonyl)-4,5,6,7-tetrahydro-1H-pyrazolo[4,3-c]pyridin-1-yl}propyl)piperidin-4-yl]-1-methyl-1,3-dihydro-2H-imidazo[4,5-b]pyridin-2-one]: the IC50 was 10 nM.

Regarding `CS(=O)(=O)N1CCc2c(c(-c3ccc(C(F)(F)F)c(SCCN4CCC(F)CC4)c3)nn2C[C@H](O)CN2CCN(c3ncccc3Cl)CC2)C1` [Example 852, (2R)-1-[4-(3-Chloropyridin-2-yl)piperazin-1-yl]-3-{3-[3-{[2-(4-fluoropiperidin-1-yl)ethyl]sulfanyl}-4-(trifluoromethyl)phenyl]-5-(methylsulfonyl)-4,5,6,7-tetrahydro-1H-pyrazolo[4,3-c]pyridin-1-yl}propan-2-ol], the IC50 is 15 nM.

Consider `CS(=O)(=O)N1CCc2c(c(-c3ccc(Cl)c(SCc4ccccc4)c3)nn2CCCN2CCOCC2)C1` [Example 128, 3-(3-Benzylsulfanyl-4-chloro-phenyl)-5-methanesulfonyl-1-(3-morpholin-4-yl-propyl)-4,5,6,7-tetrahydro-1H-pyrazolo[4,3-c]pyridine], for which the IC50 was determined as 1650 nM.

As for `O=C(CC1CCNCC1)N1CCc2c(c(-c3ccc(C(F)(F)F)c(SCCN4CCOCC4)c3)nn2CC(O)CN2CCCCC2)C1` (stereo not drawn) [Example 242, 1-[3-{3-[(2-Morpholin-4-ylethyl)sulfanyl]-4-(trifluoromethyl)phenyl}-5-(piperidin-4-ylacetyl)-4,5,6,7-tetrahydro-1H-pyrazolo[4,3-c]pyridin-1-yl]-3-piperidin-1-ylpropan-2-ol], the 50% inhibitory concentration (IC50) turned out to be 580 nM.

Regarding `CS(=O)(=O)N1CCc2c(c(-c3ccc(C(F)(F)F)c(SCCN4CCCC4)c3)nn2CCCN2CCC(N3CCCC3=O)CC2)C1` [Example 25, 1-[1-(3-{5-Methanesulfonyl-3-[3-(2-pyrrolidin-1-yl-ethylsulfanyl)-4-trifluoromethyl-phenyl]-4,5,6,7-tetrahydro-pyrazolo[4,3-c]pyridin-1-yl}-propyl)-piperidin-4-yl]-pyrrolidin-2-one], the half-inhibitory concentration (IC50) came to 410 nM.

`CS(=O)(=O)N1CCc2c(c(-c3ccc(C(F)(F)F)c(SCC(=O)N4CCCCC4)c3)nn2CCCN2CCC(N3CCCC3=O)CC2)C1` [Example 93, 1-[1-(3-{5-Methanesulfonyl-3-[3-(2-oxo-2-piperidin-1-yl-ethylsulfanyl)-4-trifluoromethyl-phenyl]-4,5,6,7-tetrahydro-pyrazolo[4,3-c]pyridin-1-yl}-propyl)-piperidin-4-yl]-pyrrolidin-2-one]: the IC50 amounted to 80 nM.

Take `NC(=O)NC1CCN(CC(O)Cn2nc(-c3ccc(C(F)(F)F)c(SCCN4CCC(F)(F)C4)c3)c3c2CCNC3)CC1` (stereo not drawn) [Example 352, 1-[1-(3-{3-[3-{[2-(3,3-Difluoropyrrolidin-1-yl)ethyl]sulfanyl}-4-(trifluoromethyl)phenyl]-4,5,6,7-tetrahydro-1H-pyrazolo[4,3-c]pyridin-1-yl}-2-hydroxypropyl)piperidin-4-yl]urea]: the half-maximal inhibitory concentration (IC50) amounted to 1260 nM.

As to `CS(=O)(=O)N1CCc2c(c(-c3ccc(C(F)(F)F)c(SCCN4CCCC(F)C4)c3)nn2C[C@@H](O)CN2C=NCCC2)C1` (stereo partly drawn) [Example 395, (2S)-1-(5,6-Dihydropyrimidin-1(4H)-yl)-3-{3-[3-{[2-(3-fluoropiperidin-1-yl)ethyl]sulfanyl}-4-(trifluoromethyl)phenyl]-5-(methylsulfonyl)-4,5,6,7-tetrahydro-1H-pyrazolo[4,3-c]pyridin-1-yl}propan-2-ol], the IC50 stood at 1430 nM.

The values are drawn from patent US20090099157A1, “TETRAHYDRO-PYRAZOLO-PYRIDINE THIOETHER MODULATORS OF CATHEPSIN S” (priority 2007, published 2009).
